Consider three compounds from ChEMBL document CHEMBL1799970, “Dipyrimidine amines: a novel class of chemokine receptor type 4 antagonists with high specificity” (J Med Chem, 2010).

The chains behind the UniProt entries cited, without tags or fusion partners.
UniProt P61073, whole entry: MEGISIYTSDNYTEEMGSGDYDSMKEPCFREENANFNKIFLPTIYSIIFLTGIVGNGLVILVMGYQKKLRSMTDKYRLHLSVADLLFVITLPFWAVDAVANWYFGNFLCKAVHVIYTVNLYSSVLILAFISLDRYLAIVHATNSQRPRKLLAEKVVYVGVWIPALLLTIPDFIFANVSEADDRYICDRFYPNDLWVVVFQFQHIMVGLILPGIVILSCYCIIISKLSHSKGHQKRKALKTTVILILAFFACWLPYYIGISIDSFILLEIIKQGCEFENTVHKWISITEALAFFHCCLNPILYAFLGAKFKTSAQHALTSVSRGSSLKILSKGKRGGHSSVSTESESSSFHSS

As a reminder, the inhibition is the drop in the measured response relative to a control, in per cent.

The target of test [1] is T1, C-X-C chemokine receptor type 4 (Homo sapiens, UniProt P61073). Briefly: Antagonist activity at CXCR4 in human MDA-MB-231 cells assessed as inhibition of CXCL12-mediated cell invasion at 100 nM by […] cell invasion assay. In kind it is functional, cell-based.
For test [2], the target named is T1, C-X-C chemokine receptor type 4. Put plainly: Displacement of biotinylated-TN14003 from CXCL12 binding site of CXCR4 in human MDA-MB-231 cells assessed as concentration required to inhibit >50% using rhodamine staining. Type of test: cell-based. The method in brief: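 MDA-MB-231 cells preincubated with compound at 1, 10, 100, 1000 nM, fixed in 4% formaldehyde, incubated with 50 nM biotinylated peptide antagonist then streptavidin-rhodamine; EC is lowest concentration blocking >50% of binding.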

Test [3] shares this target. Briefly: Antagonist activity at CXCR4 in human MDA-MB-231 cells assessed as inhibition of CXCL12-mediated cell invasion at 10 nM by […] cell invasion assay. In kind it is functional, cell-based.

Regarding `c1ccc(NCc2ccc(CNc3ncccn3)cc2)cc1`, the inhibition in test [1] worked out at 100%; in test [3] it was 55%. In addition, the EC in test [2] is 10 nM.
Regarding `c1ccc(NCc2ccc(CNc3ccccn3)cc2)nc1`, in test [2], the EC came to 10 nM.
On to `Fc1ccc(NCc2ccc(CNc3ncccn3)cc2)nc1`, for which the inhibition was 78% in test [1] and 90% in test [3]. Besides, the EC in test [2] was 1 nM.
